From article PMC4387075 (Neuropharmacology, 2015) come the findings set out here.

Protein sequences, listed by entry. Tags and fused reporters are not part of them. Residues count along the entry.
UniProt P23385, 19-1199: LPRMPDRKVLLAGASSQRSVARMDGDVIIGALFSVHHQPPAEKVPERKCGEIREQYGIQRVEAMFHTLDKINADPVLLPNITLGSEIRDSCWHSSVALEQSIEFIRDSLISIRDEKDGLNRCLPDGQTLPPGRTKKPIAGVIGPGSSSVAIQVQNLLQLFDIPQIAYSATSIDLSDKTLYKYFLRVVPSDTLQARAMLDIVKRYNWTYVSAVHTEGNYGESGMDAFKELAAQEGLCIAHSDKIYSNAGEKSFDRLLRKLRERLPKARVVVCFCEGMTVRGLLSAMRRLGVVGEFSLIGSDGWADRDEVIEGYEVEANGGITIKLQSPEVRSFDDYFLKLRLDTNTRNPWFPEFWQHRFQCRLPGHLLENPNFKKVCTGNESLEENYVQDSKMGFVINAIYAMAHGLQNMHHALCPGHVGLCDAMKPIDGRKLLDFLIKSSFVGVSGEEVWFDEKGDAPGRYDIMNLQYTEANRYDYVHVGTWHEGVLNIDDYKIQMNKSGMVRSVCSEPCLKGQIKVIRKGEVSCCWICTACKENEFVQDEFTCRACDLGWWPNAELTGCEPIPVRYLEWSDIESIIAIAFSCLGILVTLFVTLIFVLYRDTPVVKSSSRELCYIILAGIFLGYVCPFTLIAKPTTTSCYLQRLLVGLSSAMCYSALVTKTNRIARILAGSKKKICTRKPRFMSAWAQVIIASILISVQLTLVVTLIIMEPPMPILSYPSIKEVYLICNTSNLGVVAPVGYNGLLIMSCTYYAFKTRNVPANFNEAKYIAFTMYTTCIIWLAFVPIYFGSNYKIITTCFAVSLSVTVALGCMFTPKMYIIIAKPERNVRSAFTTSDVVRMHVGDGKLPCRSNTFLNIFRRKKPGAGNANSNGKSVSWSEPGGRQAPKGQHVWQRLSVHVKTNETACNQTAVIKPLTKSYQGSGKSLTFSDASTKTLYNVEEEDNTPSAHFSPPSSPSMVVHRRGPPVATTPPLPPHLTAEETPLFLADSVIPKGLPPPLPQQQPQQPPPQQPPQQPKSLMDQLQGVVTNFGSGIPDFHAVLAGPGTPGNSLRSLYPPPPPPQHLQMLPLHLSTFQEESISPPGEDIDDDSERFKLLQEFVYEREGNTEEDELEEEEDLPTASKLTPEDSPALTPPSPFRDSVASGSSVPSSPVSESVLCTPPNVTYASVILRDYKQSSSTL

In the experiment the target is mGlu1 receptors (Rattus norvegicus, UniProt P23385). Description: PI hydrolysis. It is filed as cell-based.

As for `N[C@@]1(C(=O)O)CC[C@@H](C(=O)O)C1` [ACPD, (1S,3R)-1-aminocyclopentane-1,3-dicarboxylic acid], the EC50 worked out at 30 µM.
